Experimental data reported in patent US20260388722A1, “COMPUTER-IMPLEMENTED METHOD FOR IDENTIFICATION OF PHARMACEUTICALLY ACTIVE SUBSTANCES” (published 2026).

Tested on: Trypanosoma cruzi amastigotes (Tc(ama))
Test: Trypanosoma cruzi amastigote assay, values normalized to benznidazole
Details: normalized to reference compound benznidazole (= 1); higher = more active; described as relative IC50 values
Text: FIGS. 6 and 7 show an example of an experimental validation of a TPM based ligand optimization. FIG. 6 presents relative IC50 values in the Trypanosoma cruzi amastigote assay of five parent compounds denoted “Regular” and respective TPM-optimized compounds denoted “Isomer”.
The assay values shown in FIG. 6 are normalized to a reference compound (benznidazole) to enable direct comparison of different experimental batches. It can be seen that all TPM-optimized compounds “Isomer” according to the invention achieve better activity when compared to their corresponding “Regular” parent compound. The “Regular” and “Isomer” structure relative efficacies against Trypanosoma cruzi amastigotes compared to Benznidazole visualized in FIG. 6 are listed in Table 1.

For O=C(Cn1ccnc1[N+](=O)[O-])NCc1ccccc1, the “relative efficacy against Trypanosoma cruzi amastigotes (Tc(ama)) compared to Benznidazole” value was 1.
